Experimental findings from patent publication US11236129B2, “IL-17A binding peptides and medical uses thereof” (Dompe' Farmaceutici S.P.A., priority 2018, dated 2022) are described below.

Series [1] has as its system Immortalized Human Corneal Epithelial cell line (I-HCEC). As to the kind of experiment: In vitro evaluation of expression of inflammatory cytokines in I-HCEC (real-time PCR). The format is cell-based. The protocol:
The peptide HAP (SEQ ID NO:1) and the peptide of SEQ ID NO:2 were tested in vitro for evaluation of their direct influence on expression of inflammatory cytokines in the cornea. The tests were conducted on Immortalized Human Corneal Epithelial cell line (I-HCEC) (Innoprot, Bizkaia, Spain, Ref. P10871). This is derived from Primary Human Corneal Epithelial Cells (>99% purity) and is suitable for studies of human cornea in health and disease. […] The cell medium was supplemented with 5% Fetal Bovine Serum (FBS). Cells were seeded at 320000 cells/well 6 plate and 15000 cells/well 96 plate. […] Total RNA was isolated from 6 wells plate using Quick-Start RNeasy Mini Kit (Qiagen, cat. No 74104) according to the manufacturer's instructions. Retro-transcription was performed using SuperScript Vilo (ref. 11755050, Life technologies) and real-time PCR using TaqMan protocol (ref. 4444557, Applied Biosystem) adapted for CFX96 Real-Time System. The experiments were performed three times, each time in duplicate. The used probes from Thermo Fisher Scientific are: human CXCL8 (Hs00174103_m1), human IL6 (Hs00174131_m1), human TNFα (Hs99999043_m1). As housekeeping gene was used GAPDH (probe Hs02758991_g1). […] Untreated I-HCEC were used as negative control (Vehicle).
(Quantitative PCR measures a nucleic acid by following its amplification.)

The nature of series [2]: Isoelectric point, log D and log P (SiriusT3). Type of series: physicochemical. The conditions noted are these: 25±1° C., 0.15 M KCl. The protocol: The main physicochemical properties (Isoelectric point (IP), log D (7.4) and log P) of the peptides of Table 8 below were determined by using the SiriusT3 apparatus (Sirius Analytical Instruments Ltd., East Sussex, UK) equipped with an Ag/AgCl double junction reference pH electrode, a Sirius D-PAS spectrometer and a turbidity sensing device. The pH electrode was calibrated titrimetrically in the pH range 1.8-12.2. An overhead stirrer was used and a temperature probe (Peltier controller) monitored the temperature during the course of the titration. The titration experiments were conducted in 0.15 M KCl Ionic Strength Adjusted solution (ISA water) under a nitrogen atmosphere at a temperature of 25±1° C. All tests were performed using standardized 0.5 M KOH and 0.5 M HCl as titration reagents, for the partition coefficient tests a saturated Octanol in ISA water (5% of ISA water) was used as partition solvent. The pKas were determined by potentiometric method by pH-metric titration. The powder (around 0.5 mg) was dissolved in 1.5 ml of ISA water and the titration was performed in triplicate in the pH range 2.0−12.0.

On to `CC[C@H](C)[C@H](NC(C)=O)C(=O)N[C@@H](Cc1c[nH]cn1)C(=O)N[C@H](C(=O)N[C@H](C(=O)N[C@H](C(=O)N1CCC[C@H]1C(=O)N[C@@H](C)C(=O)N[C@@H](CC(=O)O)C(=O)N[C@@H](CC(C)C)C(=O)N[C@@H](Cc1c[nH]c2ccccc12)C(=O)N[C@@H](CC(=O)O)C(=O)N[C@@H](Cc1c[nH]c2ccccc12)C(=O)N[C@H](C(=O)N[C@@H](CC(N)=O)C(=O)N[C@@H](CCCCN)C(N)=O)[C@@H](C)CC)[C@@H](C)CC)[C@@H](C)O)C(C)C` [SEQ ID NO: 1, reference compound], for which, in series [1], the “increase of IL-6 expression” value amounted to 10 fold and the “increase of TNF-α expression” value came out at 8 fold. Further, in series [2], the “IP (isoelectric point)” value is 5.14.
